Amino acid sequences for entries named in this document (tags omitted).
UniProt P21453, whole entry: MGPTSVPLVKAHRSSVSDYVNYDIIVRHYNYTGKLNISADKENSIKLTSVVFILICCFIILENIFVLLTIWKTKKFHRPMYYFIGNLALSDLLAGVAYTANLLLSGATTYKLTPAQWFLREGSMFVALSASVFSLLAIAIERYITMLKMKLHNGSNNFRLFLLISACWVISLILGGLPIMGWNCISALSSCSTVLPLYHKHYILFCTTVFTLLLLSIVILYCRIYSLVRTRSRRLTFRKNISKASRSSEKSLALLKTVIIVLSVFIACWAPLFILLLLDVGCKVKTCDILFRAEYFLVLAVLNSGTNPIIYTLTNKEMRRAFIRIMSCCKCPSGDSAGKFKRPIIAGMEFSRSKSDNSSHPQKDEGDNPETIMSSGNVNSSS

According to patent publication US9181182B2, “S1P receptors modulators” (Akaal Pharma PTY LTD, priority 2008, dated 2015):

Target: S1P1 human receptor (Homo sapiens (Human), UniProt P21453)
Test: S1P1 [35S]-GTPgamaS binding assay (agonist activity)
Type: biochemical
Experimental: Selected Compounds of the Examples were evaluated at Millipore Corporation, USA, using S1P1 receptor; [^35S]-GTPgamaS binding assay. A [^35S]-GTPgamaS binding assay at Millipore was conducted by GPCR Profiler™ Custom Service Laboratory, Temecula, Calif., Millipore, Inc. to monitor dose-dependent agonist selectivity for selected Examples against the S1P1 receptors. The assay was completed with sample compounds subjected to an eight-point, four-fold dose response curve with starting concentration of 10 μM. Selectivity was determined upon initial addition of compounds followed by a 30 minute incubation at 30° C. Following compound incubation, bounded [^35S]-GTPgamaS was determined by filtration and scintillation counting.
Independently, selected compounds were evaluated for S1P1 and S1P3 agonistic activity. The S1P1 assay system was GTPgama-S35 binding in membranes from CHO K1 cells, expressing S1P1 human receptor. The S1P3 assay system was calcium mobilization in CHO K1 cells expressing S1P3 human receptor. There was no significant background response to S1P in the CHO K1 cells with either assay. Compounds were tested initially at a concentration of 10 μM.

CCCCCCCCc1ccc(CCC(N)(CO)CO)cc1 [FTY 720, 2-amino-2-(2-[4-octylphenyl]ethyl)-1,3-propanediol, reference compound]
EC50: 2640 nM
